Key:
ovine COX1 = ovine COX1 (Ovis aries (Sheep), UniProt P05979); assay: COX1 enzymatic assay; conditions: up to a concentration of 200 μM
SOX7-RBPJ = SOX7-RBPJ (Homo sapiens (Human), UniProt Q9BT81); assay: ALPHA-Screen SOX7-RBPJ interaction; assay type: binding; conditions: 50 uM Sm4
Text: (§1) The genetically encoded tags used here are enhanced GFP (GFP), mCherry (Cherry) and cMyc (myc). The proteins were cloned into the following cell free expression Gateway destination vectors respectively: N-terminal GFP tagged (pCellFree_G03), N-terminal Cherry-cMyc (pCellFree_G07) and C-terminal Cherry-cMyc tagged (pCellFree_G08) (Gagoski et al. 2015). The Open Reading Frames (ORFs) corresponding to the human SOX7 (BC071947), SOX17, RBPJ (BC020780) and MEF2C (BC026341) were sourced from the Human ORFeome collection version 1.1 and 5.1 or the Human Orfeome collaboration OCAA collection (Open Biosystems) as previously described and cloned at the ARVEC facility, UQ Diamantina Institute. […]
(§2) The ALPHA-Screen Assay was performed as previously described (Sierecki et al. 2014), using the cMyc detection kit and Proxiplate-384 Plus plates (PerkinElmer). A serial dilution of each sample was measured. […] The ALPHA-Screen signal was obtained on an Envision Multilabel Plate Reader (PerkinElmer), using the manufacturer's recommended settings (excitation: 680/30 nm for 0.18 s, emission: 570/100 nm after 37 ms). […] The Binding Index was calculated as: BI=[(I−I_neg)/(I_ref−I_neg)]×100
(§3) For PPI disruption assay, protein pairs expressed in LTE were incubated for 1 h with 100 μM Sm4 or DMSO alone (0.7% DMSO final). 100 μM Sm4 or DMSO was also added to buffer B. PPI disruption was calculated as: (1−I_Sm4/I_DMSO)×100.

Amino acid sequences for entries named in this document (tags omitted). Residues count along the entry.
UniProt P05979, 25-600 limits assumed: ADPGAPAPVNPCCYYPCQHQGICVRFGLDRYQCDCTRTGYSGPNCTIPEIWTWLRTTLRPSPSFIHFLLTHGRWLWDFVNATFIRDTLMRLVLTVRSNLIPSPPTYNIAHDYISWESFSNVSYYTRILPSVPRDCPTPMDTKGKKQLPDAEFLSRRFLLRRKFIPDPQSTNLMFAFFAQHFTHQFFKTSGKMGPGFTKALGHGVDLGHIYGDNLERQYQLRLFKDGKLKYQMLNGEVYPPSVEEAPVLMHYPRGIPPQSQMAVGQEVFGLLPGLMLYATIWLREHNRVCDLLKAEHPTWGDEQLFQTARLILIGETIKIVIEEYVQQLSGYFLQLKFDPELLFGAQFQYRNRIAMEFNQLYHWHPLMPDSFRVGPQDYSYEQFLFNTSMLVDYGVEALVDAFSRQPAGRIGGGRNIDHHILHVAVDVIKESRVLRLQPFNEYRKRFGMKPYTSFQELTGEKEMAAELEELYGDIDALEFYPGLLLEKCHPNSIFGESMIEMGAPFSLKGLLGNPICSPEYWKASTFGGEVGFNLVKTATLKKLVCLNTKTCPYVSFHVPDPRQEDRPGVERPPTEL
UniProt Q9BT81, whole entry: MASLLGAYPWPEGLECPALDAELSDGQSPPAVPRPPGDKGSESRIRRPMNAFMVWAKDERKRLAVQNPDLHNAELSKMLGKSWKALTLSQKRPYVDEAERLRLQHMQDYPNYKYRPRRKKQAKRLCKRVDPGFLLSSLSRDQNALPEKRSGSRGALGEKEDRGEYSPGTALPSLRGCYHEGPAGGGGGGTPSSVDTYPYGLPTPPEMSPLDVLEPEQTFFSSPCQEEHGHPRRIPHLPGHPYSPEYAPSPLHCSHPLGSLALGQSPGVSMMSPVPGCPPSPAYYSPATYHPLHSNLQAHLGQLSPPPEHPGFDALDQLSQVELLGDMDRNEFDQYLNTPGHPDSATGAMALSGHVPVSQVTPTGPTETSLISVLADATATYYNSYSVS
UniProt P35713, whole entry: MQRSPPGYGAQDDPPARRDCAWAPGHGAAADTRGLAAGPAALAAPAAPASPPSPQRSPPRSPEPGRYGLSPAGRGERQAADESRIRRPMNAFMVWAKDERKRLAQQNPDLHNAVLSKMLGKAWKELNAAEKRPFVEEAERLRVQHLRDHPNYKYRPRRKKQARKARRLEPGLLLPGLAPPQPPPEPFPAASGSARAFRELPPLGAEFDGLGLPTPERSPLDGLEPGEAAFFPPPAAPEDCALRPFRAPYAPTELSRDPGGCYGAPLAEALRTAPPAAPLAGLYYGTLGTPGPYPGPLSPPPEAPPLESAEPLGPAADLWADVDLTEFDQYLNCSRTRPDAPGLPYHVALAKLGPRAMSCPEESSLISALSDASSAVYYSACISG

SOX18-SOX18 homodimer = SOX18-SOX18 homodimer (Homo sapiens (Human), UniProt P35713); assay: ALPHAScreen SOX18-SOX18 homodimerization; conditions: 5 uM
SOX7-SOX18 = SOX7-SOX18 (Homo sapiens (Human), UniProt P35713); assay: ALPHA-Screen SOX7-SOX18 interaction; assay type: binding; conditions: 50 uM Sm4
Text: as §1, §2, §3

[1] = test system: SOX18 dominant negative mutant Ra^op; assay: Single molecule tracking of SOX18 dominant negative mutant Ra^op; assay type: cell-based; conditions: concentration-dependent
Text: FIG. 24B depicts the experimental workflow, which involves bi-dimensional tracking of molecule trajectory and analysis using MATLAB, as outlined in Chen et al. (Cell 156, 1274-1285; 2014). We note that the immobile DNA bound fraction (%, shown in pie graphs) is of two types, specific and non-specific, depending on the dwelling time in one same DNA position; if of a short time (less than 1 second average) this is considered to be non-specific binding (i.e., transient binding to random DNA sites), and if of a long time (greater than 5-6 seconds average) this is considered to be specific binding (i.e., longer binding to target DNA sites with transcriptional effect). The dwell times of immobile DNA bound fractions (shown as bar graphs) is also of two types, specific and non-specific: The length of time in seconds that SOX18 molecules bind to DNA non-specifically (on average less than 1 second) or specifically (on average greater than 5-6 seconds). Single molecule tracking is performed after transfection of Hela cells with a SOX18-Halotag reporter construct. This expression vector enables us to detect single molecule of SOX18 protein upon addition of a ligand which becomes fluorescent after enzymatic processing by the Halotag system. Real time imaging is performed using a modified version of TIRF microscopy (HiLo) using a ZEISS ELYRA super-resolution microscope.

Q: With O=C(O)c1c(O)cccc1CCc1ccc2ccccc2c1 as the compound, how does the COX-1 inhibitory activity (ovine COX1) read?
A: Its COX-1 inhibitory activity is “None of the SOX18 inhibitor display any COX-1 or COX-2 inhibitory activity”.

Q: And the SOX7-RBPJ interaction disruption (SOX7-RBPJ)?
A: Its SOX7-RBPJ interaction disruption is “at least partially disrupted”.

Q: What about the “inhibitory activity in respect of SOX18-SOX18 homodimerization” value (SOX18-SOX18 homodimer) of the same compound?
A: The value was “some inhibitory activity”.

Q: What about the SOX7-SOX18 interaction disruption (SOX7-SOX18) of the same compound?
A: The SOX7-SOX18 interaction disruption was “at least partially disrupted”.

Q: And the “Ra^op chromatin bound fraction” value [1]?
A: The value was “decreases Ra^op specific bound fraction”.

From US20240002326A1, “COMPOUNDS AND USE THEREOF IN METHODS OF TREATMENT” (The University of Queensland, priority 2016, published 2024)
